For this test, the target named is T1, Dimer of Gag-Pol polyprotein [489-587] (Human immunodeficiency virus 1, UniProt P12497).
T1 construct: 489-587
Nature of the test: Protease Inhibition Assay. Conditions: pH 5.5; 37 °C. The procedure: Protease activity was measured by continuous chromogenic assay. The chromogenic peptide His-Lys-Ala-Arg-Val-Leu- (p-NO2-Phe)-Glu-Ala-Nleu-Ser (Bachem) was used as a substrate. Reactions were followed by the decrease of absorbance at 300 nm measured by spectrophotometer. Experimental results were analyzed by the nonlinear regression analysis, using a mathematical model for tight binding inhibitors.

As usually defined, the Ki is a measure of affinity in units of concentration, obtained from inhibition or displacement. A low value points to tighter binding. As for `C[C@H](N)C(=O)N[C@@H](C)C(=O)N[C@@H](Cc1ccccc1)[C@@H](O)CCC(=O)NC(c1ccccc1)c1ccccc1` [5-(L-Alanyl-L-alanylamino)-4-hydroxy-6-phenylhexanoic Acid Benzhydrylamide], affinity was put at a Ki of 1670 nM.
